# AlphaSeq binding of Ab-95 light chain variants to a spike HR2 peptide

From the AlphaSeq antibody data of Engelhart et al. 2022 (doi:10.1038/s41597-022-01779-4), copy in the FLAb collection.

The target is the same throughout: PDVDLGDISGINAS, from the HR2 region of SARS-CoV-2 spike.

The variants keep the heavy chain, the linker and the frameworks of Ab-95 (scFv order VH, a 15-residue (Gly4Ser)3 linker, VL).
VH: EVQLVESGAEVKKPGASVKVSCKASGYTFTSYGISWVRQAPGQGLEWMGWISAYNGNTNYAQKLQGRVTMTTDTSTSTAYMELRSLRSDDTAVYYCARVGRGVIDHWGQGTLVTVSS
VL: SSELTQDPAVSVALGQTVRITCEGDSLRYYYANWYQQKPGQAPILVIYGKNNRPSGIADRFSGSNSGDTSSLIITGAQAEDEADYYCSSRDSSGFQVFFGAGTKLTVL

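Variants in AAYL52 differ from the parent at up to three CDR positions; double and triple changes were sampled at random. In AlphaSeq, yeast of one mating type display the scFv and yeast of the other type display the target. Pairs that bind mate more often; barcode pairs of the diploids are counted by sequencing. The ratio of observed to expected reads was calibrated, replicate by replicate, on BCL2-family standards whose Kd was known from biolayer interferometry. Each pool was mated in three replicate cultures.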

The parent's light chain CDRs are EGDSLRYYYAN, GKNNRPS, SSRDSSGFQVF; each variant's own CDRs replace them letter for letter.
Every variant below is changed at L27 of the VL (sequential numbering).
Kd is apparent (estimated from mating counts) and averaged on the log scale over replicates with a signal. Smaller is tighter.
A pair that was not seen in any replicate is written "no signal"; this usually means weak binding, but a binder can also be missed.
Three control strains display no target. For library AAYL52, 28% of the pairings with them gave a signal, with a median of 8.2 µM and one signal in twenty below 800 nM, so weak values seen in few replicates may be background. For each scFv, signals with the empty controls are counted beside the result.

- EGDSMRYYYAN, GKNNRPW, SSRDSSGFQVF = 680 nM (2 of 3 replicates; controls 3 of 9)
- EGDSQRYYYAN, NGNNRPS, SSRDSSGFQVF = 390 nM (3 of 3 replicates; controls 3 of 9)
- EGDSPRYYYAN, GKNNRDS, SSRDTSGFQVF = no signal (0 of 3 replicates; controls 1 of 9)
- EDDSGRYYYAN, GKNNRPS, SSRDVSGFQVF = 340 nM (3 of 3 replicates; controls 4 of 9)
- EGDSEWYYYTN, GKNNRPS, SSRDSSGFQVF = 5.3 µM (3 of 3 replicates; controls 5 of 9)
- KGDSNRYYYAN, GKNNRCS, SSRDSSGFQVF = 400 nM (3 of 3 replicates; controls 0 of 9)
- EGDSVRYYYAN, GGNNRPS, SSRDSSGFCVF = 1.2 µM (2 of 3 replicates; controls 3 of 9)
- WGDSMRYYYAN, GKDNRPS, SSRDSSGFQVF = 4.3 µM (1 of 3 replicates; controls 1 of 9)
- EGDYHRYYGAN, GKNNRPS, SSRDSSGFQVF = 1.1 µM (3 of 3 replicates; controls 6 of 9)
- NGDSHRYYYAN, GKNNRPS, LSRDSSGFQVF = 960 nM (1 of 3 replicates; controls 1 of 9)
- DGDSFRYYYAN, GKNNRPS, SSRDSSLFQVF = 1.4 µM (2 of 3 replicates; controls 2 of 9)
- EGCSNRYYYAN, GKNNRPS, SSRYSSGFQVF = 28 µM (2 of 3 replicates; controls 1 of 9)
- EGDSHRYYYAN, GKNNRPS, SSRDSIGFQVY = 28 µM (2 of 3 replicates; controls 1 of 9)
- EGDSWRYYYAN, GKNNRPS, SSRDSSGCQVV = no signal (0 of 3 replicates; controls 1 of 9)
- EGDSHRYYAAN, AKNNRPS, SSRDSSGFQVF = 2.9 µM (3 of 3 replicates; controls 4 of 9)
- EGDSGYYYYAN, GKNNWPS, SSRDSSGFQVF = 17 µM (3 of 3 replicates; controls 8 of 9)
- EGDSNRYYFAN, GKNNRPS, SSRDSSGFQVF = 5.4 µM (3 of 3 replicates; controls 4 of 9)
- EGDSNRYYYAN, GKNNRPS, SSRDASGYQVF = 800 nM (3 of 3 replicates; controls 6 of 9)
- EGDSAKYYYAN, GKNNRPS, SSRDSSGFQVA = 630 nM (3 of 3 replicates; controls 1 of 9)
- EGDSDRYYYAN, GKNNRPS, SSRDSSGFQGV = 97 nM (3 of 3 replicates; controls 5 of 9)
- EGGSRRYYYAG, GKNNRPS, SSRDSSGFQVF = 490 nM (3 of 3 replicates; controls 3 of 9)
- EYDSIRYYYAI, GKNNRPS, SSRDSSGFQVF = 12 µM (2 of 3 replicates; controls 2 of 9)
- EMDSVFYYYAN, GKNNRPS, SSRDSSGFQVF = 14 µM (2 of 3 replicates; controls 3 of 9)
- PGDSIYYYYAN, GKNNRPS, SSRDSSGFQVF = 12 µM (1 of 3 replicates; controls 2 of 9)
- EGDSDNYYYAN, GKNNRPS, SSRDSSGFQVF = 4.1 µM (2 of 3 replicates; controls 0 of 9)
- EGDSNRYYYAN, GKNNRPS, SLRDSSRFQVF = 11 µM (1 of 3 replicates; controls 0 of 9)
- EGDSTRYYYAN, GKNNRIS, SSRDWSGFQVF = no signal (0 of 3 replicates; controls 0 of 9)
- EGDSWRYYYAN, GKNNRPS, SSRDSSGFQVF = 160 nM (3 of 3 replicates; controls 6 of 9)
- EGDYKRYYYAN, GKNNRPS, SSNDSSGFQVF = no signal (0 of 3 replicates; controls 1 of 9)
- EGDSRYYYYAN, GKNNRPD, SSRDSSGFQVF = 9.8 µM (2 of 3 replicates; controls 1 of 9)
- EGDSDRYYYAN, GENCRPS, SSRDSSGFQVF = 51 µM (2 of 3 replicates; controls 4 of 9)
- EGDSVRYDYAN, GKNNRPS, SSRDASGFQVF = 290 nM (3 of 3 replicates; controls 3 of 9)
- EGDSCRYYYAN, GKNNRPK, SSRDSSGYQVF = 3.7 µM (2 of 3 replicates; controls 4 of 9)
- EGDSDRYYYAN, GKYNRPS, SSRDHSGFQVF = 3.3 µM (2 of 3 replicates; controls 4 of 9)
- EGDSSRYYYAN, GCNNRPS, SSRDSSGFPVF = 26 µM (2 of 3 replicates; controls 4 of 9)
- EGDSMRYYYQN, GKNNRPS, SSRDWSGFQVF = 1.7 µM (3 of 3 replicates; controls 2 of 9)
- EGDSSRYYYAN, GKNNRSS, SSPDSSGFQVF = no signal (0 of 3 replicates; controls 3 of 9)
- EGDSYRYYYPN, GKNNRPS, SSRDYSGFQVF = 13 µM (3 of 3 replicates; controls 2 of 9)
- EGDSRRYYYAN, GKNNRWS, SSRDSSGFQVQ = 2.9 µM (1 of 3 replicates; controls 3 of 9)
- EGDSCRYMYAN, GKNNRPT, SSRDSSGFQVF = 22 µM (1 of 3 replicates; controls 2 of 9)
- EGDSPRYYCAT, GKNNRPS, SSRDSSGFQVF = 35 µM (1 of 3 replicates; controls 5 of 9)
- EGDSWRYYYAN, GKNNSPS, SSRDSSGFTVF = 6.2 µM (2 of 3 replicates; controls 4 of 9)
- EGDSIRYYYAN, GKNNRPS, SSRDSSGFRAF = 1.9 µM (3 of 3 replicates; controls 5 of 9)
- EGDSKRYYYAN, GKNNRPS, SSRDSLGFQQF = 9.1 µM (1 of 3 replicates; controls 1 of 9)
- EGDSGRYYYAN, GKNNRPS, SSRDSSGFQVF = 2.8 µM (2 of 3 replicates; controls 4 of 9)
- EGDSGSYYYAN, GKNNRPS, SSRHSSGFQVF = 3.8 µM (1 of 3 replicates; controls 1 of 9)
- EGDYFRYYYAN, GKNNRPS, SSRDSSGLQVF = 1.5 µM (2 of 3 replicates; controls 1 of 9)
- EGDSCRYYYAP, GKNNQPS, SSRDSSGFQVF = 44 µM (1 of 3 replicates; controls 3 of 9)
- EGDQKRYYYAS, GKNNRPS, SSRDSSGFQVF = no signal (0 of 3 replicates; controls 2 of 9)
- EGDSWRYYYAN, YKNNRPS, SSRDSSGCQVF = 9.0 µM (2 of 3 replicates; controls 2 of 9)
- EGDSQRYYYAN, GTNNRPS, SGRDSSGFQVF = 1.3 µM (3 of 3 replicates; controls 3 of 9)
- EGDSTRYYYAN, GKNNRPS, VSRDSSGFQVF = 11 µM (1 of 3 replicates; controls 4 of 9)

Extract of 9 entries:

* EGDSDNYYYAN, GKNNRPS, SSRDSSGFQVF: 4.1 µM (2 of 3 replicates; controls 0 of 9)
* EGDYKRYYYAN, GKNNRPS, SSNDSSGFQVF: no signal (0 of 3 replicates; controls 1 of 9)
* EGDSWRYYYAN, GKNNSPS, SSRDSSGFTVF: 6.2 µM (2 of 3 replicates; controls 4 of 9)
* EGDSSRYYYAN, GCNNRPS, SSRDSSGFPVF: 26 µM (2 of 3 replicates; controls 4 of 9)
* EGDSIRYYYAN, GKNNRPS, SSRDSSGFRAF: 1.9 µM (3 of 3 replicates; controls 5 of 9)
* EGDSQRYYYAN, NGNNRPS, SSRDSSGFQVF: 390 nM (3 of 3 replicates; controls 3 of 9)
* EGDSPRYYYAN, GKNNRDS, SSRDTSGFQVF: no signal (0 of 3 replicates; controls 1 of 9)
* EGDSTRYYYAN, GKNNRPS, VSRDSSGFQVF: 11 µM (1 of 3 replicates; controls 4 of 9)
* EGDSRYYYYAN, GKNNRPD, SSRDSSGFQVF: 9.8 µM (2 of 3 replicates; controls 1 of 9)